Measured values as given in patent US20140065611A1, “MODIFICATION OF NEURO[…] OF MERCURY BY A GENETIC PO[…] COPROPOR[…] IN CHILDREN” (University of Washington through its Center for …, priority 2012, published 2014).
Read-outs that look alike come from different tables or passages of the source. Marks after values point to notes of the source that are not given here.

Assays:
children [1] = settings: boys
children [2] = settings: for Beta (SE), Hg^0 dose-response, Stroop Test - Word/Color / rpart, Hg^0 dose-response, Stroop Test - Word/Color / Beta (SE), main effect Hg (ln), Stroop Test - Word/Color / rpart, main effect Hg (ln), Stroop Test - Word/Color: boys; for Beta (SE), Hg^0 dose-response, Stroop Test - Word/Color / rpart, Hg^0 dose-response, Stroop Test - Word/Color: acute Hg^0 (HgU Year 2)
children [3] = settings: boys; remark: listed apart in the source
children [4] = settings: boys; remark: listed apart in the source
children [5] = settings: boys; remark: listed apart in the source
children [6] = settings: for Beta (SE), Hg^0 dose-response, Adult Trails A - Time (Sec) / rpart, Hg^0 dose-response, Adult Trails A - Time (Sec): boys
children [7] = settings: boys; remark: listed apart in the source
children [8] = settings: boys; remark: listed apart in the source
children [9] = settings: boys, Year 7, maximum Hg^0
children [10] = settings: boys, CPOX4 Het or Mut, Year 7, maximum Hg^0
[11] = CPOX4 Het or Mut, Year 7, cumulative Hg^0
[12] = CPOX4 Het or Mut, Year 7, maximum Hg^0
[13] = CPOX4 Het or Mut, acute Hg^0 (HgU Year 2)
[14] = CPOX WT, Year 7, cumulative Hg^0
[15] = CPOX WT, acute Hg^0 (HgU Year 2)

## elemental mercury [Hg^0]
Children [1]; [11]
  Beta (SE), Hg^0 dose-response, Stroop Test - Color: −12.55 (4.05)*
  rpart, Hg^0 dose-response, Stroop Test - Color: −.47 (.004)*
Children [1]; [12]
  Beta (SE), Hg^0 dose-response, Stroop Test - Color: −11.17 (3.80)
  rpart, Hg^0 dose-response, Stroop Test - Color: −.45 (.006)
Children [1]; [13]
  Beta (SE), Hg^0 dose-response, Stroop Test - Color: −8.40 (2.80)*
  rpart, Hg^0 dose-response, Stroop Test - Color: −.42 (.005)*
Children [1]; [14]
  Beta (SE), Hg^0 dose-response, Stroop Test - Color: −1.14 (2.32)
  rpart, Hg^0 dose-response, Stroop Test - Color: −.06 (.63)
Children [1]; CPOX WT, Year 7, maximum Hg^0
  Beta (SE), Hg^0 dose-response, Stroop Test - Color: .73 (2.24)
  rpart, Hg^0 dose-response, Stroop Test - Color: .04 (.74)
Children [1]; [15]
  Beta (SE), Hg^0 dose-response, Stroop Test - Color: −.19 (1.80)
  rpart, Hg^0 dose-response, Stroop Test - Color: −.01 (.92)
Children [2]; CPOX4 Het or Mut
  Beta (SE), Hg^0 dose-response, Stroop Test - Word/Color: −3.50 (1.68)*
  rpart, Hg^0 dose-response, Stroop Test - Word/Color: −.31 (.04)*
Children [2]; CPOX WT
  Beta (SE), Hg^0 dose-response, Stroop Test - Word/Color: 1.09 (1.51)
  rpart, Hg^0 dose-response, Stroop Test - Word/Color: .07 (.47)
Children [2]; Year 7, cumulative Hg
  Beta (SE), main effect Hg (ln), Stroop Test - Word/Color: −3.30 (1.64)*
  rpart, main effect Hg (ln), Stroop Test - Word/Color: −.18 (.05)*
Children [2]; Year 7, maximum Hg
  Beta (SE), main effect Hg (ln), Stroop Test - Word/Color: −2.17 (.59)
  rpart, main effect Hg (ln), Stroop Test - Word/Color: −.13 (.16)
Children [2]; girls, Year 2, p≦0.03
  direction of significant main effect of acute Hg^0 exposure, Stroop Color/Word test: improved direction
Children [3]; [11]
  Beta (SE), Hg^0 dose-response, Stroop Test - Word: −18.06 (4.89)*
  rpart, Hg^0 dose-response, Stroop Test - Word: −.54 (.001)*
Children [3]; [12]
  Beta (SE), Hg^0 dose-response, Stroop Test - Word: −17.10 (4.51)
  rpart, Hg^0 dose-response, Stroop Test - Word: −.54 (.001)
Children [3]; [14]
  Beta (SE), Hg^0 dose-response, Stroop Test - Word: −2.90 (3.20)
  rpart, Hg^0 dose-response, Stroop Test - Word: −.10 (.37)
Children [3]; CPOX WT, Year 7, maximum Hg^0
  Beta (SE), Hg^0 dose-response, Stroop Test - Word: −.77 (3.10)
  rpart, Hg^0 dose-response, Stroop Test - Word: −.03 (.80)
Children [4]; [11]
  Beta (SE), Hg^0 dose-response, WAIS-III - Digit Span: −3.57 (1.12)*
  rpart, Hg^0 dose-response, WAIS-III - Digit Span: −.48 (.003)*
Children [4]; [12]
  Beta (SE), Hg^0 dose-response, WAIS-III - Digit Span: −3.90 (.98)
  rpart, Hg^0 dose-response, WAIS-III - Digit Span: −.57 (.0001)
Children [4]; [14]
  Beta (SE), Hg^0 dose-response, WAIS-III - Digit Span: .11 (.77)
  rpart, Hg^0 dose-response, WAIS-III - Digit Span: .02 (.88)
Children [4]; CPOX WT, Year 7, maximum Hg^0
  Beta (SE), Hg^0 dose-response, WAIS-III - Digit Span: .87 (.74)
  rpart, Hg^0 dose-response, WAIS-III - Digit Span: .13 (.24)
Children [5]; [11]
  Beta (SE), Hg^0 dose-response, WMS-III - Spatial Span: −2.45 (.97)*
  rpart, Hg^0 dose-response, WMS-III - Spatial Span: −.40 (.02)*
Children [5]; [12]
  Beta (SE), Hg^0 dose-response, WMS-III - Spatial Span: −2.89 (.85)
  rpart, Hg^0 dose-response, WMS-III - Spatial Span: −.50 (.002)
Children [5]; [14]
  Beta (SE), Hg^0 dose-response, WMS-III - Spatial Span: .17 (.62)
  rpart, Hg^0 dose-response, WMS-III - Spatial Span: .03 (.79)
Children [5]; CPOX WT, Year 7, maximum Hg^0
  Beta (SE), Hg^0 dose-response, WMS-III - Spatial Span: .57 (.60)
  rpart, Hg^0 dose-response, WMS-III - Spatial Span: .11 (.35)
Children [6]; [11]
  Beta (SE), Hg^0 dose-response, Adult Trails A - Time (Sec): 11.25 (3.83)*
  rpart, Hg^0 dose-response, Adult Trails A - Time (Sec): .45 (.006)*
Children [6]; [12]
  Beta (SE), Hg^0 dose-response, Adult Trails A - Time (Sec): 13.04 (3.30)
  rpart, Hg^0 dose-response, Adult Trails A - Time (Sec): .56 (.0001)
Children [6]; [14]
  Beta (SE), Hg^0 dose-response, Adult Trails A - Time (Sec): −.80 (2.07)
  rpart, Hg^0 dose-response, Adult Trails A - Time (Sec): −.04 (.70)
Children [6]; CPOX WT, Year 7, maximum Hg^0
  Beta (SE), Hg^0 dose-response, Adult Trails A - Time (Sec): −2.37 (1.98)
  rpart, Hg^0 dose-response, Adult Trails A - Time (Sec): −.14 (.24)
Children [6]; girls, Year 2, p≦0.03
  direction of significant main effect of acute Hg^0 exposure, Trails A test: impaired direction
Children [7]; [11]
  Beta (SE), Hg^0 dose-response, SRT Mean: .15 (.05)*
  rpart, Hg^0 dose-response, SRT Mean: .44 (.007)*
Children [7]; [12]
  Beta (SE), Hg^0 dose-response, SRT Mean: .14 (.05)*
  rpart, Hg^0 dose-response, SRT Mean: .46 (.005)*
Children [7]; [14]
  Beta (SE), Hg^0 dose-response, SRT Mean: .00 (.03)
  rpart, Hg^0 dose-response, SRT Mean: .01 (.96)
Children [7]; CPOX WT, Year 7, maximum Hg^0
  Beta (SE), Hg^0 dose-response, SRT Mean: .01 (.03)
  rpart, Hg^0 dose-response, SRT Mean: .02 (.86)
Children [8]; [11]
  Beta (SE), Hg^0 dose-response, WAIS-III - Digit Symbol: −20.70 (6.08)*
  rpart, Hg^0 dose-response, WAIS-III - Digit Symbol: −.50 (.002)*
Children [8]; [12]
  Beta (SE), Hg^0 dose-response, WAIS-III - Digit Symbol: −18.17 (5.75)*
  rpart, Hg^0 dose-response, WAIS-III - Digit Symbol: −.48 (.003)*
Children [8]; [14]
  Beta (SE), Hg^0 dose-response, WAIS-III - Digit Symbol: −2.46 (3.33)
  rpart, Hg^0 dose-response, WAIS-III - Digit Symbol: −.08 (.46)
Children [8]; CPOX WT, Year 7, maximum Hg^0
  Beta (SE), Hg^0 dose-response, WAIS-III - Digit Symbol: −.32 (3.32)
  rpart, Hg^0 dose-response, WAIS-III - Digit Symbol: −.01 (.92)
Children [9]; CPOX4 Het or Mut
  Beta (SE), Hg^0 dose-response, Adult Trails B: 22.26 (7.03)*
  rpart, Hg^0 dose-response, Adult Trails B: .48 (.003)*
Children [9]; CPOX WT
  Beta (SE), Hg^0 dose-response, Adult Trails B: 1.98 (6.08)
  rpart, Hg^0 dose-response, Adult Trails B: .04 (.75)
Children [10]
  Beta (SE), Hg^0 dose-response, RAVALT TR5 - List A: −1.78 (.80)*
